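Tested at 5 concentrations; 48 h exposure; 96-well plates; endpoints linearly interpolated, else capped at highest concentration. TGI marks complete inhibition of growth.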
Columns and labels:
Test in all cases: DTP human tumour cell line panel, 48 h
MCF7 breast = system: MCF7 breast
KM12 colon = system: KM12 colon
SN12C renal = system: SN12C renal
CAKI-1 renal = system: CAKI-1 renal
SW-620 colon = system: SW-620 colon
K-562 leukemia = system: K-562 leukemia
ACHN renal = system: ACHN renal
PC-3 prostate = system: PC-3 prostate
HT29 colon = system: HT29 colon
LOX IMVI melanoma = system: LOX IMVI melanoma
MALME-3M melanoma = system: MALME-3M melanoma
786-0 renal = system: 786-0 renal
SK-OV-3 ovarian = system: SK-OV-3 ovarian
HCT-15 colon = system: HCT-15 colon
M14 melanoma = system: M14 melanoma
SK-MEL-28 melanoma = system: SK-MEL-28 melanoma
MDA-MB-435 = system: MDA-MB-435
OVCAR-5 ovarian = system: OVCAR-5 ovarian
HOP-92 NSCLC = system: HOP-92 NSCLC
HL-60(TB) leukemia = system: HL-60(TB) leukemia
HS 578T breast = system: HS 578T breast
NCI-H522 lung = system: NCI-H522 lung
UACC-62 melanoma = system: UACC-62 melanoma
MDA-MB-231 breast = system: MDA-MB-231 breast
NCI-H23 lung = system: NCI-H23 lung
OVCAR-4 ovarian = system: OVCAR-4 ovarian
EKVX NSCLC = system: EKVX NSCLC
MOLT-4 leukemia = system: MOLT-4 leukemia
A498 renal = system: A498 renal
COLO 205 colon = system: COLO 205 colon
U251 CNS = system: U251 CNS
SK-MEL-2 melanoma = system: SK-MEL-2 melanoma
OVCAR-8 ovarian = system: OVCAR-8 ovarian
SNB-19 CNS = system: SNB-19 CNS
TK-10 renal = system: TK-10 renal
T-47D breast = system: T-47D breast
UACC-257 melanoma = system: UACC-257 melanoma
SR leukemia = system: SR leukemia
DU-145 prostate = system: DU-145 prostate
NCI-H226 lung = system: NCI-H226 lung
BT-549 breast = system: BT-549 breast
HOP-62 NSCLC = system: HOP-62 NSCLC
SK-MEL-5 melanoma = system: SK-MEL-5 melanoma
A549 NSCLC = system: A549 NSCLC
SF-295 CNS = system: SF-295 CNS
SF-539 CNS = system: SF-539 CNS
OVCAR-3 ovarian = system: OVCAR-3 ovarian
SF-268 CNS = system: SF-268 CNS
CCRF-CEM leukemia = system: CCRF-CEM leukemia
NCI/ADR-RES ovarian = system: NCI/ADR-RES ovarian
RPMI-8226 leukemia = system: RPMI-8226 leukemia
HCT-116 colon = system: HCT-116 colon
UO-31 renal = system: UO-31 renal
IGROV1 ovarian = system: IGROV1 ovarian

Measured: TGI

CCCC(C)(O)C1CC23C=CC1(OC)[C@@H]1Oc4c(OC)ccc5c4[C@@]12CCN(C)[C@@H]3C5 (some centres undefined)
> 100 µM: MCF7 breast | KM12 colon | SN12C renal | CAKI-1 renal | SW-620 colon | K-562 leukemia | ACHN renal | PC-3 prostate | HT29 colon | LOX IMVI melanoma | MALME-3M melanoma | 786-0 renal | SK-OV-3 ovarian | HCT-15 colon | M14 melanoma | SK-MEL-28 melanoma | MDA-MB-435 | OVCAR-5 ovarian | HOP-92 NSCLC | HL-60(TB) leukemia | HS 578T breast | NCI-H522 lung | UACC-62 melanoma | MDA-MB-231 breast | NCI-H23 lung | OVCAR-4 ovarian | EKVX NSCLC | MOLT-4 leukemia | A498 renal | COLO 205 colon | U251 CNS | SK-MEL-2 melanoma | OVCAR-8 ovarian | SNB-19 CNS | TK-10 renal | T-47D breast | UACC-257 melanoma | SR leukemia | DU-145 prostate | NCI-H226 lung | BT-549 breast | HOP-62 NSCLC | SK-MEL-5 melanoma | A549 NSCLC | SF-295 CNS | SF-539 CNS | OVCAR-3 ovarian | SF-268 CNS | CCRF-CEM leukemia | NCI/ADR-RES ovarian | RPMI-8226 leukemia | HCT-116 colon | UO-31 renal | IGROV1 ovarian

From PubChem BioAssay (NCI)
